The values that follow are results of earlier work, collected in publication PMC4554882 (Bioorganic & medicinal chemistry, 2015).

Molecules are shown by their SMILES.

For the series the following is noted: prior study of the authors; ref [11]; cited from earlier work.

As to `COc1ccc2c(c1)CCCN2c1nc(Cl)nc2ccccc12` [Compound 1a], the “metabolic stability t1/2” value was 10.6 min.
